Measured values published in patent US12435294B2, “Prevention of the oxidation of perfumery raw materials and food raw materials” (Firmenich SA, priority 2018, dated 2025).

Assay: POV (peroxide value) reduction in mixed citrus oil
Details: DMESi 0.2614 g; for Reduction in POV (%): vs untreated

## Dimethylethylsilane
0 d since addition
  POV (mmol/L) of treated: 53.69 mmol/L
  Reduction in POV (%): 0.00%
0.04 d since addition
  POV (mmol/L) of treated: 39.17 mmol/L
  Reduction in POV (%): 27.04%
1.24 d since addition
  POV (mmol/L) of treated: 41.85 mmol/L
  Reduction in POV (%): 29.19%
5 d since addition
  POV (mmol/L) of treated: 49.28 mmol/L
  Reduction in POV (%): 29.66%
14 d since addition
  POV (mmol/L) of treated: 45.98 mmol/L
  Reduction in POV (%): 26.69%
